The numbers were not newly measured in PMC3152616 (Peptides, 2011), which cites them from elsewhere.

Broadly, the IC50 is the midpoint of a concentration-inhibition curve.

Where two headings read alike, the source gives them in different places.

This data set deals with T1, BRS-3 (Homo sapiens, UniProt P32247).
T1 sequence (P32247 1-399): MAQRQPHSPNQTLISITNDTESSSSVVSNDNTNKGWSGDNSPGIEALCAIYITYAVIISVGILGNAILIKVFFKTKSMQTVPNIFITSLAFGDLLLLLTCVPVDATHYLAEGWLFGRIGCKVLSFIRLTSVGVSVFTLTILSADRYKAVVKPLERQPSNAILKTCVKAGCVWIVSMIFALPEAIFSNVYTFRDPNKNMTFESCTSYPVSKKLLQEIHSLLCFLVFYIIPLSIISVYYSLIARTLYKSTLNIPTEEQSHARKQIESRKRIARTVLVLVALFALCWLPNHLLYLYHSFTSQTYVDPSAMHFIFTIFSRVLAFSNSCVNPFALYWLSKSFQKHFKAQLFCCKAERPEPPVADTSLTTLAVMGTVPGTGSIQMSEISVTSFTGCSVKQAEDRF
To be noted: read-out: IC50, BRS-3, cited from earlier work.

Regarding “Ac-Phe-Trp-Ala-His(γBzl)-Nip-Gly-Arg-NH2”, the IC50 was 1.3 µM (ref 2, 28) and 0.08 µM (ref 26, 27).
